The values that follow come from patent publication US9980973B2, “Bicyclic heterocycle compounds and their uses in therapy” (ASTEX THERAPEUTICS LIMITED, priority 2012, dated 2018).

Protein sequences, listed by entry. Tags and fused reporters are not part of them. Residues count along the entry.
UniProt Q13490, 267-363: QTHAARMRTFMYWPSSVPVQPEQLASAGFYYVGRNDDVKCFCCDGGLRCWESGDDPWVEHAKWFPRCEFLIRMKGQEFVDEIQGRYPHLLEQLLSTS
UniProt P98170, 252-350: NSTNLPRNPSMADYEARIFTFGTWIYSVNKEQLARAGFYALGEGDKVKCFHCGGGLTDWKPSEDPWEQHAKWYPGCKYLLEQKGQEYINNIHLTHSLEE

Structures are written as SMILES. Structures can show the parent of a compound that is named as a salt.

Test [1] deals with T1, BIR3 domain of human cIAP-1 (Homo sapiens, UniProt Q13490).
T1 construct: human cIAP-1 (residues 267-363) fused to a GST-tag; GST-tag (cleaved yes); made in house; host or cells: Escherichia coli
Description: cIAP-1 in vitro competitive displacement binding assay (fluorescence polarization). The following applies: for inhibition at 0.012 µM: 3 h, read-out: cIAP1 IC50 or PI μM (PI), PI at 0.012 μM.

Test [2] deals with T2, BIR3 domain of human XIAP (Homo sapiens, UniProt P98170).
T2 construct: BIR3 domain of human XIAP (residues 252-350) fused to a His-tag; His-tag (cleaved yes); made in house; host or cells: Escherichia coli
Description: XIAP in vitro competitive displacement binding assay (fluorescence polarization). Conditions: for Xiap IC50 or PI μM (PI): PI at 0.04 μM, 60 min, dihydrochloride, 0.04 µM; for inhibition at 0.04 µM: read-out: Xiap IC50 or PI μM (PI), PI at 0.04 μM.

On to `C[C@@H]1CN(CC(=O)N2CC(C)(C)c3ncc(C(O)c4ccc(F)c(F)c4)cc32)[C@@H](CN2[C@H](C)COC[C@H]2C)CN1` (single isomer, unassigned) [Example 109, (R or S)-1-{6-[(3,4-Difluorophenyl)(hydroxy)meth-yl]-3,3-dimethyl-1H,2H,3H-pyrrolo[3,2-b]pyridin-1-yl}-2-[(2R,5R)-2-{[(3R,5R)-3,5-dimethylmorpholin-4-yl]methyl}-5-methylpiperazin-1-yl]ethan-1-one dihydrochloride], for which the inhibition at 0.012 µM in test [1] was found to be 93%. Besides, the “Xiap IC50 or PI μM (PI)” value in test [2] came to 64%@0.04.

For `C[C@@H]1CN(CC(=O)N2CC(C)(C)c3ncc(C(O)c4ccccc4)cc32)[C@@H](CN2[C@H](C)COC[C@H]2C)CN1` (single isomer, unassigned) [Example 114, 2-[(2R,5R)-2-{[(3R,5R)-3,5-Dimethymorpholin-4-yl]methyl}-5-methylpiperazin-1-yl]-1-{(R or S)-6-[hydroxy(phenyl)methyl]-3,3-dimethyl-1H,2H,3H-pyrrolo[3,2-b]pyridin-1-yl}ethan-1-one dihydrochloride], the inhibition at 0.012 µM in test [1] came out at 83%. The inhibition at 0.04 µM in test [2] (1 h) came out at 82%.

Turning to `CCCC(F)(F)c1cc2c(cn1)C(C)(C)CN2C(=O)CN1C[C@@H](C)NC[C@@H]1CN1[C@H](C)CN(C(C)=O)C[C@@H]1C` [Example 93, 2-[(2R,5R)-2-{[(2R,6S)-4-Acetyl-2,6-dimethylpiperazin-1-yl]methyl}-5-methylpiperazin-1-yl]-1-[6-(1,1-difluorobutyl)-3,3-dimethyl-1H,2H,3H-pyrrolo[3,2-c]pyridin-1-yl]ethan-1-one dihydrochloride], the inhibition at 0.012 µM in test [1] stood at 80%. In test [2] (1 h), the inhibition at 0.04 µM is 50%.

Regarding `C[C@@H]1CN(CC(=O)N2CC(C)(C)c3ncc(C(O)c4ccc(F)cc4F)cc32)[C@@H](CN2[C@H](C)COC[C@H]2C)CN1` (single isomer, unassigned) [Example 104, (R or S)-1-{6-[(2,4-Difluorophenyl)(hydroxy)meth-yl]-3,3-dimethyl-1H,2H,3H-pyrrolo[3,2-b]pyridin-1-yl}-2-[(2R,5R)-2-{[(3R,5R)-3,5-dimethylmorpholin-4-yl]methyl}-5-methylpiperazin-1-yl]ethan-1-one dihydrochloride], the “cIAP1 IC50 or PI μM (PI)” value in test [1] (PI at 0.012 μM, 180 min, dihydrochloride, 0.012 µM) amounted to 110%@0.012. For the same molecule, the “Xiap IC50 or PI μM (PI)” value in test [2] was 70%@0.04.

On to `C[C@@H]1CN(CC(=O)N2CC(C)(C)c3ncc(Cc4ccc(F)cc4)cc32)[C@@H](CN2CCC[C@@H](F)C2)CN1` [Example 14, 1-{6-[(4-Fluorophenyl)methyl]-3,3-dimethyl-1H,2H,3H-pyrrolo[3,2-b]pyridin-1-yl}-2-[(2R,5R)-2-{[(3R)-3-fluoropiperidin-1-yl]methyl}-5-methylpiperazin-1-yl]ethan-1-one dihydrochloride], for which the inhibition at 0.012 µM in test [1] was found to be 98%. Also, the inhibition at 0.12 µM in test [2] (1 h, read-out: Xiap IC50 or PI μM (PI), PI at 0.12 μM) came out at 62%.
